Reference: paper PMC11004252

Target: phospho-Ser 2 carboxy-terminal domain (CTD) RNA polymerase II (human (endogenous in hSAECs)) (UniProt P24928)
Assay: proximity ligation; Duolink in situ PLA of BRD4 and pSer2 Pol II, hSAECs transfected with FLAG-BRD4 lentivirus, fixed, RSV infected (MOI 1, 24 h)

Substance: FLAG-BRD4 (from UniProt O60885 1-1362) (natural protein; phospho-Ser 2 of the carboxy-terminal domain (CTD); other documents disagree on this pair)
- fold induction of PLA complexes, RSV against mock: 19 fold
- percent of cells with PLA foci (RSV infected): > 80 % of cells
